{"source": "patent US9062320B2", "about": "“Biological systems input-output response system and plant sentinels” (dated 2015)", "key": {"[1]": {"system": "Transgenic Arabidopsis leaves containing ssTNT, FLS:Trg:PhoR, PhoB:VP64 and PlantPho promoter degreening genes", "assay": "TNT induced degreening of excised transgenic Arabidopsis leaves", "source_text": "(§1) FIGS. 6A-6D show functional plant sentinel via linking input to degreening circuit. TNT induced Degreening: Transgenic Arabidopsis or Tobacco leaves containing ssTNT. FLS:Trg:PhoR, PhoB:VP64, and the PlantPho promoter controlling expression of the degreening genes, were excised and submerged in TNT. The progress of degreening was followed in one day increments. […] FIGS. 6C-D show time-course monitoring of chlorophyll fluorescence as a measure of degreening in Arabidopsis and Tobacco detached leaves induced to degreen. Chlorophyll measurements were obtained using a Fluorcam. One of the parameters derived from chlorophyll measurements is Fv/Fm, which is a measure of photosynthetic capability (specifically maximum quantum yield of PSII). A normal leaf would have an Fv/Fm ratio of 0.8. Note the decline over time in the Fv/Fm ratio as the leaves degreen, however the wild-type Columbia leaf stayed close to 0.8.\n(§2) Arabidopsis and tobacco plants were then co-transformed with the PlantPho promoter-degreening circuit and the SS-TNT, FLS:TRG:PhoR, PhoB:VP64 construct."}, "[2]": {"system": "PlantPho promoter linked to GUS", "assay": "GUS expression from PlantPho promoter in response to TNT (SS-TNT, FLS:Trg:PhoR, PhoB:VP64)", "protocol": "In FIG. 4B, plants are exposed to TNT, TNT binds the sensor protein, the sensor protein develops affinity for the exterior of the histidine kinase (Trg), the histidine kinase is activated, and the operably linked interior (PhoR) transmits a high energy phosphate group to PhoB:VP64 that then shuttles to the nucleus and activates transcription of the PlantPho promoter linked to GUS. […] All assumptions for this analysis were tested and met.\nT0 represents the first generation of transgenic plants whereas T1 represents the second generation (T0 seed self-pollinated). Seed from two of the T0 parental lines has been obtained. These lines segregate for the two T-DNA inserts that contain the signaling components. One T-DNA contains the genes for the receptor and histidine kinase (SS-TNT, FLS:Trg:PhoR) while the other T-DNA contains the genes for the response regulator (PhoB:VP64) and the PlantPho promoter fused to GUS (PlantPho:GUS). In bacterial sensing and signaling systems, the sensitivity and response systems are extremely sensitive to the other's levels. In the transgenic plants, the two genetic sets segregate in a classic 9:3:3:1 pattern.\n(§3) TNT Induction of Arabidopsis Plants. TNT (ChemService, West Chester, Pa.) stock solution was prepared by dissolving TNT powder in DMSO. Final solutions containing different concentrations of TNT were prepared in water. Plants were incubated in water (control) or water plus 10 uM TNT for 16 hours.\n(§4) GUS fluorometric assays. After incubation of plants with inducer of the gene circuit (CK, TNT, etc.), plants/leaves were ground in extraction buffer (50 mM NaHPO4, pH 7.0, 10 uM β-mercaptoethanol, 10 mM Na2EDTA, pH 8.0, 0.1% Sarcosyl, 0.1% Triton X-100). GUS Reaction: Protein extract combined with extraction buffer was incubated and then stopped with reaction stop buffer (0.2 M Na2 CO3) and 4-MU fluorescence read on a DyNA Quant 200 Fluorometer (Hoefer, Inc., San Francisco, Calif.) (Gallagher, S. R., 1992)."}, "[3]": {"system": "ARR5 promoter fused to GUS", "assay": "GUS expression from ARR5 promoter in response to TNT (SS:TNT, FLS:TRZ:AHK4)", "details": "plants homozygous for ARR5 promoter:GUS retransformed with SS:TNT and FLS:TRZ:AHK4", "source_text": "Quantitative (GUS) and qualitative (GFP) data were obtained for transgenic Arabidopsis plants homozygous for the ARR5 promoter fused to GUS and GFP, respectively, retransformed with the computationally designed receptor for TNT (SS:TNT) and the hybrid histidine kinase (plant leader (FLS):TRZ:AHK4). In response to TNT, the ARR5 promoter was activated causing an approximate 2-fold increase in GUS expression.\nas §3, §4"}, "[4]": {"system": "PlantPho promoter linked to GUS", "assay": "GUS induction by TNT in plants with mutagenized PhoBD53A:VP64 linked to the TNT sensing system", "details": "10 μM TNT; PhoBD53A:VP64 mutagenized protein; control levels close to 4", "source_text": "FIGS. 3A-3E show evidence for signal-dependent nuclear shuttling of bacterial response regulators in plants. […] FIG. 3A panels A-B show transient assay of PhoB:GFP fusion protein in onion epidermal cells. Cells treated with cytokinin (B) had stronger nuclear PhoB:GFP accumulation than control (A) cells. FIG. 3A panels C-P show signal-dependent shuttling of PhoB:GFP to the nucleus in transgenic Arabidopsis plants. Localization of PhoB:GFP in roots (C-H), in leaves (I-J, M-N), and the crown (K-L, O-P), a stem-like region. Prior to cytokinin treatment (C, I, K), fluorescence from PhoB:GFP is diffuse and throughout the cells. […] FIG. 3A panels Q-R show confocal microscopy of PhoB:GFP roots showing that the protein enters the nucleus. Insets correspond to close-up views. −CK, plant tissues prior to cytokinin treatment; +CK same plant tissue after cytokinin treatment. DAPI, same tissues treated with DAPI to stain DNA. Arrowheads indicate nuclei. Scale bars=50 μm. […]\nThe D53 in PhoB, that is fused with GFP, was mutagenized (Asp 53 to Ala), the DNA sequence verified, and then transferred into Arabidopsis plants (FIG. 3D). […] For PhoB, it was also shown that the Asp53 residue is important in quantitative GUS assays with the TNT sensor protein and hybrid HKs described below. […]"}, "[5]": {"system": "Transgenic Tobacco leaves containing ssTNT, FLS:Trg:PhoR, PhoB:VP64 and PlantPho promoter degreening genes", "assay": "TNT induced degreening of excised transgenic tobacco leaves", "details": "10 μM TNT", "source_text": "as §1, §2\nPlant material, transgenic plant production and growth conditions. Wild type Arabidopsis thaliana (ecotype Columbia) were used for analysis and transgenic plant production. Plasmids were assembled as described above and transferred into Agrobacterium tumefaciens strain GV3101 by electroporation. […]"}}, "note": "Some compounds may have been tested in ways that are not shown here."}
{"compound": "Cc1c([N+](=O)[O-])cc([N+](=O)[O-])cc1[N+](=O)[O-]", "values": [{"measurement": "degreening phenotype", "setting": "[1]; 100 pM (23 parts per trillion) of TNT", "value": "white leaves"}, {"measurement": "time within which induction could be detected using remote techniques", "setting": "[1]; 100 pM TNT, chlorophyll fluorescence (Fluorcam)", "value": "≤ 5", "unit": "h"}, {"measurement": "extremely low level of TNT the system is responding to", "setting": "[2]; FIG. 4B, FLS:Trg:PhoR, PhoB:VP64, PlantPho:GUS", "value": 10, "unit": "picomoles"}, {"measurement": "GUS activity, induced levels", "setting": "[2]; TNT induction, wild-type PhoB:VP64, control levels close to 4", "value": "≥ 6", "unit": "nM MU/mg protein/hour"}, {"measurement": "increase in expression with sensing TNT", "setting": "[2]; data from FIG. 4, model plants", "value": "about a two-fold increase in expression"}, {"measurement": "increase in GUS expression", "setting": "[3]", "value": 2, "unit": "fold"}, {"measurement": "GUS activity levels", "setting": "[4]", "value": "less than 4 nM MU/mg protein/hour"}, {"measurement": "degreening phenotype", "setting": "[5]", "value": "notable degreening"}, {"measurement": "remote readout (chlorophyll fluorescence)", "setting": "[5]; at 24 hours", "value": "notably different"}]}
